This is an account of results in ChEMBL document CHEMBL1155455.

Chains of the proteins cited; added tags and fusions are not shown. Lines headed by an entry give the natural chain unless they say otherwise; changes in a name come on top.
UniProt P41143, whole entry: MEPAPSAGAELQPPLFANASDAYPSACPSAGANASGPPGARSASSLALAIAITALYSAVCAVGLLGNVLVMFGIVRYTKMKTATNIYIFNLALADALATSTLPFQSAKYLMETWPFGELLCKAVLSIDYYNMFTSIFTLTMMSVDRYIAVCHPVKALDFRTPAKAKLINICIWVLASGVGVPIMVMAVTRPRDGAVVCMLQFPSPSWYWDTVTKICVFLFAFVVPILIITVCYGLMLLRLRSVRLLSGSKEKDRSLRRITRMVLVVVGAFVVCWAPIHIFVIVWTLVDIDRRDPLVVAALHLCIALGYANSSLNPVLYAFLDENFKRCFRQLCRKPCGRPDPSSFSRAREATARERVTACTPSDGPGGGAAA
UniProt P41145: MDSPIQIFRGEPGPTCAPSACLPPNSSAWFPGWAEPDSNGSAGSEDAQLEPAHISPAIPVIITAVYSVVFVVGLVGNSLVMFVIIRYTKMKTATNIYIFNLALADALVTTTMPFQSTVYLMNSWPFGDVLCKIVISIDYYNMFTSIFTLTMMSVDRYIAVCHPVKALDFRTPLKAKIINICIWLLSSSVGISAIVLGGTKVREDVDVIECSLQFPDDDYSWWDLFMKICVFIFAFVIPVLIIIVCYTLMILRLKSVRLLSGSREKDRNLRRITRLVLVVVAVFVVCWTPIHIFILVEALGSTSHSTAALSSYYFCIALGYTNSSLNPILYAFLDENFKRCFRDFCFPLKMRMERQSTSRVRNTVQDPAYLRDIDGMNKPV
UniProt P35372, whole entry: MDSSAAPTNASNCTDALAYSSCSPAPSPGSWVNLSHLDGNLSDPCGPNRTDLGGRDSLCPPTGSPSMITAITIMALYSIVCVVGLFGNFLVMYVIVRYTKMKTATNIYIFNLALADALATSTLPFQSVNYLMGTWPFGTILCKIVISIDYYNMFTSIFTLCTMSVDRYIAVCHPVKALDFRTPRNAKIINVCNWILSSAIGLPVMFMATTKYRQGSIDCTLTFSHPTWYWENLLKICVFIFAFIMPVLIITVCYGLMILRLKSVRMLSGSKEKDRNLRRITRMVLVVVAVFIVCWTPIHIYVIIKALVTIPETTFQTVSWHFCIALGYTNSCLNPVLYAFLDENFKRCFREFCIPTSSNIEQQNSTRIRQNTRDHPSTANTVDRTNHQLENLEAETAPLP

Holding throughout (conditions): CHO
For assay [1], the target named is Delta-type opioid receptor (Homo sapiens) (UniProt P41143).
Assay [2] has as its target Kappa-type opioid receptor (Homo sapiens) (UniProt P41145).
In assay [3] the target is Mu-type opioid receptor (Homo sapiens) (UniProt P35372).

For the molecule `CC(C)[C@@H](CN1CC[C@@](C)(c2cccc(O)c2)[C@@H](C)C1)NC(=O)[C@H]1Cc2ccc(O)cc2CO1`, the Ke in assay [1] stood at 197 nM; in assay [2] it was 0.71 nM; in assay [3] it was 7.4 nM.
On the same counts, the results for `CC(C)[C@@H](CN1CC[C@@](C)(c2cccc(O)c2)[C@@H](C)C1)NC(=O)[C@H]1Cc2ccc(O)cc2CS1` are 395 nM, 0.99 nM and 5.57 nM.
In the case of `CC(C)[C@@H](CN1CC[C@@](C)(c2cccc(O)c2)[C@@H](C)C1)NC(=O)[C@@H]1CCc2cc(O)ccc2C1`, the Ke in assay [1] was determined as 44.8 nM; in assay [2], 0.18 nM; in assay [3] it was 6.67 nM.
Turning to `CC(C)[C@@H](CN1CC[C@@](C)(c2cccc(O)c2)[C@@H](C)C1)NC(=O)[C@@H]1Cc2ccc(O)cc2CO1`, the Ke worked out at 134 nM in assay [1], 5.7 nM in assay [2] and 5.2 nM in assay [3].
On the same counts, the results for `CC(C)[C@@H](CN1CC[C@@](C)(c2cccc(O)c2)[C@@H](C)C1)NC(=O)[C@H]1Cc2ccc(O)cc2C[S+]1[O-]` (single isomer, unassigned; diastereomer b) are 61 nM, 0.55 nM and 1.8 nM.
On to `CC(C)[C@@H](CN1CC[C@@](C)(c2cccc(O)c2)[C@@H](C)C1)NC(=O)[C@@H]1Cc2ccc(O)cc2CS1`, for which the Ke was 182 nM in assay [1], 1.58 nM in assay [2] and 13.4 nM in assay [3].
On the same counts, the results for `CC(C)[C@@H](CN1CC[C@@](C)(c2cccc(O)c2)[C@@H](C)C1)NC(=O)[C@H]1Cc2ccc(O)cc2C[S+]1[O-]` (single isomer, unassigned; diastereomer a) are 208 nM, 2.7 nM and 7.9 nM.
Taken in the same sequence, the figures for `CC(C)[C@@H](CN1CC[C@@](C)(c2cccc(O)c2)[C@@H](C)C1)NC(=O)[C@H]1CCc2cc(O)ccc2C1` were 205 nM, 1.37 nM and 11.2 nM.
